ChEMBL document CHEMBL1132638, “New (sulfonyloxy)piperazinyldibenzazepines as potential atypical antipsychotics: chemistry and pharmacological evaluation” (J Med Chem, 1999)

Sequences of proteins named here, by UniProt entry; tags and fusion partners are left off.
UniProt P14842, whole entry: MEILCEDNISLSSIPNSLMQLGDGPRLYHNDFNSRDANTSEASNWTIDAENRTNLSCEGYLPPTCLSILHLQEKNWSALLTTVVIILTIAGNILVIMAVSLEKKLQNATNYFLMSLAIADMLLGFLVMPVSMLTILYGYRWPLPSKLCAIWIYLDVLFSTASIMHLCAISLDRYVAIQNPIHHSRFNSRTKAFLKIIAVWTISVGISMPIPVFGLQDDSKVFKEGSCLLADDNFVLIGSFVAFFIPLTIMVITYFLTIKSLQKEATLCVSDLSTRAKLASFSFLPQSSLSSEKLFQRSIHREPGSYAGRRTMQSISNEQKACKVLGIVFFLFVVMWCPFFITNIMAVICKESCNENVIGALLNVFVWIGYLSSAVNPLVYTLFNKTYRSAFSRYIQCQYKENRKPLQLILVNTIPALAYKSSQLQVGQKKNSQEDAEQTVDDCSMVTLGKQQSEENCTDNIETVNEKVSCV

Target: 5-hydroxytryptamine receptor 2A (Rattus norvegicus, UniProt P14842)
Assay: biochemical

Work on `CN1CCN(C2=Nc3ccccc3Oc3ccc(Cl)cc32)CC1` [LOXAPINE] yielded an IC50 of 6 nM.
